# Experimental data published in ChEMBL document CHEMBL4627260, “Optimisation of estrogen receptor subtype-selectivity of a 4-Aryl-4H-chromene scaffold previously identified by virtual screening” (Bioorg Med Chem, 2020).
# Species on record: Homo sapiens
# Assay: Selectivity ratio of IC50 for displacement of fluorescent estrogen ligand from recombinant human full length untagged ERbeta expressed in baculovirus infected insect cells to IC50 for displacement of fluorescent estrogen ligand from recombinant human full length untagged ERalpha expressed in baculovirus infected insect cells
row,Compound,Ratio IC50
1,CCCCOC(=O)C1=C(N)Oc2cc(O)ccc2C1c1ccc(OCCN2CCCCC2)cc1 (stereo not drawn),87.3
2,CCCCOC(=O)C1=C(N)Oc2cc(O)ccc2C1c1ccc(OCCN2CCCC2)cc1 (stereo not drawn),353
3,CC(C)(C)OC(=O)C1=C(N)Oc2cc(O)ccc2C1c1ccc(OCCN2CCCC2)cc1 (stereo not drawn),49.5
4,N#CC1=C(N)Oc2cc(O)ccc2C1c1ccccc1 (stereo not drawn),0.84
5,CC(C)(C)OC(=O)C1=C(N)Oc2cc(O)ccc2C1c1ccc(OCCN2CCCCC2)cc1 (stereo not drawn),3.93
6,COC(=O)C1=C(N)Oc2cc(O)ccc2C1c1ccc(OCCN2CCOCC2)cc1 (stereo not drawn),0.0054
7,COC(=O)C1=C(N)Oc2cc(O)ccc2C1c1ccc(O)cc1 (stereo not drawn),12.7
8,N#CC1=C(N)Oc2cc(O)ccc2C1c1ccc(OCCN2CCOCC2)cc1 (stereo not drawn),3.58
9,N#CC1=C(N)Oc2cc(O)ccc2C1c1ccc(OCCN2CCCCC2)cc1 (stereo not drawn),7.1
10,CCOC(=O)C1=C(N)Oc2cc(O)ccc2C1c1ccccc1 (stereo not drawn),0.26
11,CCOC(=O)C1=C(N)Oc2cc(O)ccc2C1c1ccc(OCCN2CCOCC2)cc1 (stereo not drawn),11
12,N#CC1=C(N)Oc2cc(O)ccc2C1c1ccc(OCCN2CCCC2)cc1 (stereo not drawn),11.2
13,COC(=O)C1=C(N)Oc2cc(O)ccc2C1c1ccc(OCCN2CCCC2)cc1 (stereo not drawn),14.3
14,CCOC(=O)C1=C(N)Oc2cc(O)ccc2C1c1ccc(OCCN2CCCC2)cc1 (stereo not drawn),2.21
15,COC(=O)C1=C(N)Oc2cc(O)ccc2C1c1ccccc1 (stereo not drawn),0.48
16,CCOC(=O)C1=C(N)Oc2cc(O)ccc2C1c1ccc(OCCN2CCCCC2)cc1 (stereo not drawn),2.56
17,COC(=O)C1=C(N)Oc2cc(O)ccc2C1c1ccc(OCCN2CCCCC2)cc1 (stereo not drawn),4.77

# Species on record: Homo sapiens
# Assay: Selectivity ratio of IC50 for displacement of fluorescent estrogen ligand from recombinant human full length untagged ERalpha expressed in baculovirus infected insect cells to IC50 for displacement of fluorescent estrogen ligand from recombinant human full length untagged ERbeta expressed in baculovirus infected insect cells
row,Compound,Ratio IC50
1,COC(=O)C1=C(N)Oc2cc(O)ccc2C1c1ccc(OCCN2CCOCC2)cc1 (stereo not drawn),170
